Experimental data: publication PMC11999149
Where two headings read alike, the source gives them in different places.

Biological target: membrane truncated soluble E2 (sE2, residues 384-645) of the H77 isolate (hepatitis C virus, isolate H77, genotype 1a) (UniProt P27958)
Experiment: SPR

Row | Substance | koff (Fab) [s⁻¹] | Kd [nM] | koff [s⁻¹]
1 | AR3A Fab (reference) | 0.00141 | – | –
2 | AR3A full-length IgG (reference) | – | 0.841 | 0.000291
